Literature values as cited in paper PMC3377386 (Pharmaceutical Research, 2011).
Structures can show the parent of a compound that is named as a salt.

Conditions: healthy human subjects, MN pre-treatment + transdermal naltrexone patch; cited from earlier work

Which “duration of higher (therapeutically relevant) naltrexone plasma levels” value does the source give for `O=C1CC[C@@]2(O)[C@H]3Cc4ccc(O)c5c4[C@@]2(CCN3CC2CC2)[C@H]1O5` [NTX·HCl, naltrexone HCl] here?
Its value is “up to 72 h”.
